The values that follow are results of earlier work, collected in US9822414B2, “In vitro method for predicting in vivo genotoxicity of chemical compounds” (priority 2011, dated 2017).

SMILES strings stand for the structures.

For the data set, the system named is Salmonella typhimurium. The following applies: cited from earlier work.

Turning to `O=C(O)Cc1ccccc1Nc1c(Cl)cccc1Cl` [Diclo], the Ames entry is on record as “−”.
